This is a selection; strong and weak results do not stand in their true shares. Inconclusive results are not listed. Activity calls are given as the source filed them. The call rests on the fitted dose curve; in most records, active means well fitted activation curve with a large enough effect in the repeat runs; inconclusive means weak or mixed curves; inactive means no such curve, though single readings can be large or run the other way.
On the % scale 0 is the no-effect control and ±100 the full control effect.

By UniProt entry, the sequences of proteins in these tests, tags left out.
UniProt Q9R1A7, whole entry: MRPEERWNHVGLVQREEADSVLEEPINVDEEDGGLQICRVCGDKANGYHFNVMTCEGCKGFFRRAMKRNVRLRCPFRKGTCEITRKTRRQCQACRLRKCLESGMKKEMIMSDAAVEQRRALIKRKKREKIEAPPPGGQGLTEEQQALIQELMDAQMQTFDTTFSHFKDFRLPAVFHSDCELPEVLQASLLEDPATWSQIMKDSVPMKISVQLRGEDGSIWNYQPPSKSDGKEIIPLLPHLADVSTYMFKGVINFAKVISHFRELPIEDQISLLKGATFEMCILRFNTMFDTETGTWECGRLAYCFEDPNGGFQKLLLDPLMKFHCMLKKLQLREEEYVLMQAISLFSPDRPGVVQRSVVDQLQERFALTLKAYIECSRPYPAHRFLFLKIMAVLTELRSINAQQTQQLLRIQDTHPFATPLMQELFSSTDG

The target of the experiment is Nuclear receptor subfamily 1 group I member 2 (Rattus norvegicus) (UniProt Q9R1A7). In words: Rat pregnane X receptor (rPXR) activation by small molecules, qHTS assay. Further: nearly all actives have a fitted effect of over 20% in size. The conditions noted are these: rPXR luciferase reporter cells, One-Glo luminescence, 24 h; stronger effect = higher value. From the text:
National Center for Advancing Translational Sciences [NCATS] NIH Chemical Genomics Center [NCGC] U.S. Environmental Protection Agency [EPA] National Institutes of Environmental Health Sciences [NIEHS] National Toxicology Program [NTP] Assay overview: The Pregnane X receptor (PXR), a ligand activated nuclear receptor plays a critical role in the regulation of genes involved in drug metabolism and transporters. PXR binds xenobiotics and when compounds interact with PXR produces enhanced expression of CYP3A genes. In humans PXR activation and CYP3A4 induction can be problematic due to their interactions with co-medicated drugs and decrease their efficacy or increase their own metabolism. However, there are known species-specific differences with regard to PXR activation that should be taken into account when animal PXR data are extrapolated to humans. A cell based rat PXR (rPXR) assay (developed by Puracyp, Inc., CA) was used to assess the activation of rPXR.
Assay Protocol Summary: rPXR cells were dispensed at 2,000 per well in 5uL of assay medium into white, solid-bottom 1536-well plates using a Multidrop Combi dispenser (Thermo Scientific). The assay plates were incubated at 37 C for 5hr before transferring 23 nL of test compounds dissolved in DMSO and positive control via Pintool station (Wako). The assay plates were incubated at 37 C for 24 hr. Then 5ul One-Glo assay reagent (Promega) was added to each plate by a Flying Reagent Dispenser (FRD, Aurora Discovery) and following 30 min incubation at room temperature, luciferase activity was quantified on a ViewLux plate reader (Perkin Elmer).
In general terms: In qHTS, concentration-response curves come from the screen itself.
For the compound `C/C1=C2N=C(/C=C3N=C(/C(C)=C4\[N-][C@@](C)([C@@H]5N=C1[C@](C)(CCC(=O)NC[C@@H](C)OP(=O)([O-])O[C@H]1[C@@H](O)[C@@H](n6cnc7cc(C)c(C)cc76)O[C@@H]1CO)[C@H]5CC(N)=O)[C@@](C)(CC(N)=O)[C@@H]4CCC(N)=O)[C@@](C)(CC(N)=O)[C@@H]\3CCC(N)=O)C(C)(C)[C@@H]/2CCC(N)=O.[C-]#N.[Co+3]`, the max activation is inactive: -1.1%.

As for `CC(C)OP(=O)(F)OC(C)C`, the max activation is inactive: -0.54%. Under `OCCSCCO` stands inactive: -1.61%; under `O=[N+]([O-])[O-].[NH4+]`, inactive: -2.83%. Under `CN(C)CCS` stands inactive: -2.98%; under `O=[N+]([O-])c1cccc([N+](=O)[O-])c1`, inactive: -5.04%. Under `O=[N+]([O-])OCC(CO[N+](=O)[O-])(CO[N+](=O)[O-])CO[N+](=O)[O-]` stands inactive: -0.548%.

These data come from PubChem BioAssay AID1346983 (Tox21, 2019).
